Earlier results as cited in publication PMC11881035, “^68Ga-Labeled Glycopeptides as Effective Tools for Liver Function Imaging” (Molecular Pharmaceutics, 2025).

Experiments:
[1] = parameters: method as in PMID 38750246; conditions: cited from earlier work
[2] = in vivo; cited from earlier work

Substance: [^99mTc]Tc-GSA: galactosylated human serum albumin-based radiopharmaceutical targeting the ASGR, used for SPECT
- liver uptake ([1]; 30 min p.i. ref 21): 51.3 ± 2.8 % ID/g
- intestinal activity ([1]; 60 min p.i. ref 21): 9.8 ± 1.9 % ID/g

Substance: [^68Ga]Ga-NOTA-GSA: 68Ga-labeled NOTA conjugate of galactosylated human serum albumin for PET
- time of rapid tracer accumulation in liver (time-activity curves) [2]: ≤ 5 min
